Measured values: publication PMC4357465, “Tool Compounds Robustly Increase Turnover of an Artificial Substrate by Glucocerebrosidase in Human Brain Lysates” (PLoS ONE, 2015)
Where two headings read alike, the source gives them in different places.

Protein sequences, listed by entry. Tags and fused reporters are not part of them. Residues count along the entry.
UniProt P04062, 40-536 limits assumed: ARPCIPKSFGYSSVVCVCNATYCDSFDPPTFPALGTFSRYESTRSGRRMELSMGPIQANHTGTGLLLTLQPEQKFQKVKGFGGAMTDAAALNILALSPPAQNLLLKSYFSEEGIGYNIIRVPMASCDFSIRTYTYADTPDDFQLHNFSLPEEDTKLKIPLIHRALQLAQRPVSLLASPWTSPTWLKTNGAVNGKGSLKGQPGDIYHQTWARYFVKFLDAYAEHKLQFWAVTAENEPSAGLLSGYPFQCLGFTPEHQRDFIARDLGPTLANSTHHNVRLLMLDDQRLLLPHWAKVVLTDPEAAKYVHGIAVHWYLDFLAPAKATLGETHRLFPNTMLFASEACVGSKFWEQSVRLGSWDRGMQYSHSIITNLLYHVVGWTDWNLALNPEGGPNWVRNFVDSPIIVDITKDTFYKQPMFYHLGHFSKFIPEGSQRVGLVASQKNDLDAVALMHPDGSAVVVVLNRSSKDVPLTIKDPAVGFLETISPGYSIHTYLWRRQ
UniProt P17439, 20-515 limits assumed: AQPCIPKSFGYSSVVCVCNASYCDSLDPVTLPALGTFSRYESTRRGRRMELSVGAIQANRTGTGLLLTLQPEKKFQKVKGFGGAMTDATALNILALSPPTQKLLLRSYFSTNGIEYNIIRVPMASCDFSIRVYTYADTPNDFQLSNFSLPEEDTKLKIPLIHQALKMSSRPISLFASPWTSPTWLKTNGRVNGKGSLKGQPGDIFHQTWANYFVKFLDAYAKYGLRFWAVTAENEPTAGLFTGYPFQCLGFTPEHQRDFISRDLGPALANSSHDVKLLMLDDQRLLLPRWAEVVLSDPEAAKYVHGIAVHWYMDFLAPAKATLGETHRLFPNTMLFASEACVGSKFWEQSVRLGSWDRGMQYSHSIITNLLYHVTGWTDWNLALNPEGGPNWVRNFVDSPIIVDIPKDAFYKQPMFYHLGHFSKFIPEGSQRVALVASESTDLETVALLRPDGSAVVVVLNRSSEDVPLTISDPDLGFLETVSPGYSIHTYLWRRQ

What was measured:
[1] = target: wild-type human GBA1 (Homo sapiens, UniProt P04062); assay: assay measuring turnover of glucosylceramide; conditions: cell free, natural substrate 50 μM glucosylceramide
[2] = tested on: N370S mutant GBA1; conditions: human spleen homogenates; cited from earlier work
[3] = target: purified human GBA1 (Homo sapiens, UniProt P04062); assay: GBA1 enzymatic cell-free assay, turnover of 4MUG; type: biochemical; conditions: for activation of purified GBA1, % signal: maximal signal, absence of sodium taurocholate; for activation of purified GBA1, % signal / EC50: representative experiment
[4] = target: GBA1 in mouse brain lysates (Mus musculus, UniProt P17439); assay: GBA1 tissue assay, 4MUG turnover in mouse brain lysates; type: biochemical
Protocol: (§1) Human cortex was acquired from brain banks (Tissue Solutions: http://www.tissue-solutions.com; Proteogenex: http://www.proteogenex.com). Human cortex samples were obtained from deceased aged Caucasian subjects without any diagnosis of neurodegenerative disorders. Mouse brain was obtained from 4–7 month old C57BL/6J mice. All mouse experiments were performed in accordance with the specifications of both the National Institutes of Health Guide for the Care and Use of Laboratory Animals, studies were approved by Pfizer’s Internal Animal Care and Use Committee (IACUC). […] Samples were then centrifuged at 20,000g for 15 minutes at 4°C. Supernatant was collected, and used for activity assays and Western blots. Protein concentration was determined using the Pierce BCA protein assay kit. Tissue lysates and pellets were stored at -80°C until use. For enzymatic activity assays, lysates were subjected only to one free-thaw cycle. Independent replicates were obtained using brain lysates from either different human subjects or different mice. […] Brain tissue lysates were diluted to 0.4 μg/ μl of protein in the same homogenization buffer, as described above. 25 μl of diluted lysate was added to the plate (Costar, 7200567). Lysates were then incubated on ice in the presence or absence of a compound for 30 minutes. 100 μl of assay buffer was then added to the plate. The same assay buffer was used as in the cell free/recombinant experiments and processed as described above.

[5] = tested on: GBA1 in mouse brain lysates; assay: as above; type: biochemical; conditions: mouse brain lysates; 31.6 μM; without sodium taurocholate
Protocol: as §1

[6] = solubility of compounds under assay conditions; type: physicochemical
[7] = target: human recombinant GBA1 in mouse brain lysates (Homo sapiens, UniProt P04062); assay: human recombinant GBA1 added to mouse brain lysates, 4MUG turnover; conditions: purified human GBA1 added to mouse brain lysates; for EC50: mean ± SEM
[8] = tested on: GBA1 in lysates from human cortex; assay: GBA1 tissue assay, 4MUG turnover in human cortex lysates; conditions: for % activation at 31.6 μM - NaTc: without sodium taurocholate; for EC50: read-out: EC50 - NaTc, without sodium taurocholate, three independent experiments
[9] = target: GBA1 in lysates from human cortex (Homo sapiens, UniProt P04062); assay: as above; conditions: for % activation at 31.6 μM + NaTc: with sodium taurocholate; for EC50: read-out: EC50 + NaTc, with sodium taurocholate, three independent experiments
[10] = read-out: EC50 purified GBA1 (+NaTc), with sodium taurocholate
[11] = read-out: EC50 purified GBA1 (-NaTc), without sodium taurocholate
[12] = mouse brain lysates, with sodium taurocholate
[13] = read-out: EC50: + NaTc, with sodium taurocholate
[14] = read-out: EC50: - NaTc, without sodium taurocholate

| human GBA1 activity measured by cleavage of glucosylceramide substrate [1] | activation of purified GBA1, % signal [3] | EC50 [3, 10] | EC50 [3, 11] | % activation at 31.6 μM: + NaTc [4, 12] | highest concentration at which both compounds were soluble [6] | % activation at 31.6 μM: + NaTc ([7]; with sodium taurocholate) | % activation at 31.6 μM: - NaTc ([7]; without sodium taurocholate) | EC50 [7, 13] | EC50 [7, 14] | EC50 [8] | % activation at 31.6 μM + NaTc [9] | EC50 [9] | activity of deglycosylated or sonicated human recombinant GBA1 ([3]; 10 μM, 4MUG assay) | effect on GBA1 activity relative to vehicle/DMSO ([4]; 10 μM, mouse brains left at room temperature 0, 2, 4 or 24 hours) | EC50 ([4]; read-out: EC50: + NaTc, mouse brain lysates, with sodium taurocholate, three independent experiments) | Structure (SMILES) | turnover of 4MUG artificial substrate by N370S mutant GBA1 [2] | % activation at 31.6 μM: - NaTc [5] | % activation at 31.6 μM - NaTc [8] |
| --- | --- | --- | --- | --- | --- | --- | --- | --- | --- | --- | --- | --- | --- | --- | --- | --- | --- | --- | --- |
| do not increase | 210% | 790 nM | 230 nM | 5 ± 2% | 31.6 µM | 78 ± 8% | 133 ± 7% | 770 nM | 340 nM | 1020 nM | 55 ± 2% | 1060 nM | – | – | – | C#Cc1ccc(NC(=O)c2cnn3c(C)cc(C)nc23)cc1 | can increase turnover | -13 ± 4% | 19 ± 6% |
| do not increase | 370% | 870 nM | 430 nM | 12 ± 4% | 31.6 µM | 84 ± 10% | 231 ± 10% | 890 nM | 700 nM | 790 nM | 90 ± 8% | 820 nM | can be also modulated | only a small effect | 1280 nM | Cc1cc(C)n2ncc(C(=O)Nc3ccc(Br)cc3)c2n1 | can increase turnover | -14 ± 3% | 42 ± 13% |
